Values of other authors as cited in patent US11173135B2 (Thiogenesis Therapeutics, Inc., priority 2016, dated 2021).
“Also recorded” adds a separate entry of the source.

Columns and labels:
[1] = system: Plasmodium berghei ANKA strain; conditions: mice infected with Plasmodium berghei ANKA; cited from earlier work
[2] = system: cystinosis patients; conditions: high doses; cited from earlier work

CC(C)(CO)[C@@H](O)C(=O)NCCC(=O)NCCSSCCNC(=O)CCNC(=O)[C@H](O)C(C)(C)CO [pantethine]
cerebral syndrome [1]: prevents the cerebral syndrome
excretion in the stool [2]: most of the dose was excreted in the stool; also recorded: much of the pantethine was excreted unchanged in the stool
